High-throughput results: PubChem BioAssay, National Center for Advancing Translational Sciences (NCATS)
DT40 TDP1 no CPT: qHTS for Inhibitors of human tyrosyl-DNA phosphodiesterase 1 (TDP1): qHTS in cells in absence of CPT. DT40 Tdp1-/- hTDP1 cells, no CPT, ATP luminescence, 48 h. Potency, µM (highest dose often 46.2 µM), inactives show top-dose activity change, negative = growth inhibition, most hits filed as inhibitors. actives 15% (n = 420,000). AID 686978, 2013; further: potency means the concentration at half of the fitted maximal effect; on the % scale 0 is the no-effect control and ±100 the full control effect; nearly all actives have a fitted effect of over 55% in size
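DT40 Tdp1-/-;hTDP1 cells, no CPT (DMSO vehicle only), 400 cells/well; compounds pin-transferred; ≥48 hr, 37 °C; CellTiter-Glo 30 min RT dark, luminescence read.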
TDP1 cell CPT: DT40-hTDP1 cell growth loss with CPT | Potency, µM (series often up to 46.2 µM), inactives show at the highest dose activity change, negative = growth inhibition, actives largely listed as inhibitors | chicken DT40 Tdp1-/-;hTDP1 cells + 20 nM CPT, ATP luminescence, 48 h | actives 12% (n = 420,000) | AID 686979; further: potency means the concentration at half of the fitted maximal effect; on the % scale 0 is the no-effect control and ±100 the full control effect; nearly all actives have a fitted effect of over 55% in size
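Chicken DT40 Tdp1-/- cells stably complemented with human TDP1 were seeded at 400 cells/well in medium containing 20 nM camptothecin, exposed to pin-transferred compounds, and grown at 37 °C for at least 48 hr. Viability was read as ATP luminescence.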
TDP1 block: inhibitors of human tyrosyl-DNA phosphodiesterase TDP1. actives 0.28% (n = 350,000). Potency, µM (series often up to 130 µM), for the others: top-dose activity change, negative = inhibition, actives largely listed as inhibitors. AID 485290. Q9NUW8. recombinant TDP1, AlphaScreen DNA substrate cleavage; further: potency means the concentration at half of the fitted maximal effect; on the % scale 0 is the no-effect control and ±100 the full control effect; nearly all actives have a fitted effect of over 40% in size
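Signal: AlphaScreen proximity between streptavidin donor and anti-FITC acceptor beads on intact substrate. Reaction: Tdp1 1 nM, substrate 15 nM final, 5 min RT after 15 min compound preincubation.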
miR-21 reporter: raises the signal of a miR-21 reporter; 340,000 tested, under 10 active; HeLa miR-21 FLuc reporter, luciferase, 48 h; Potency, µM (highest dose often 38.3 µM), without a hit: top-dose reporter change, positive = more light; active = well fitted rising curve with a large enough effect; inconclusive = small, poorly fitted or top-dose-only effect; inactive = no such curve, though single readings can be large or run the other way;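 also: % of control where 0% means no effect; miR-21 action dims this reporter so a rising signal means less miR-21 action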
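HeLa cells stably expressing CMV-driven firefly luciferase with a downstream miR-21 binding sequence, endogenously expressing miR-21, were treated with titrations (up to about 40uM final) for 48 hours at 37 degree Celsius. Luciferase luminescence was read after lysis.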
uPA surface inh: cell surface uPA generation inhibition; cell surface uPA generation assay, qHTS; Potency, µM (highest dose often 38.3 µM), inactives show top-dose activity change, negative = inhibition, usual class: inhibitors; actives 0.31% (n = 330,000); AID 540303; active means well fitted inhibition curve with a large enough effect; inconclusive means small, poorly fitted or top-dose-only effect; inactive means no such curve, though single readings can be large or run the other way; tested in mouse RAW 264.7 cells; further: potency means the concentration at half of the fitted maximal effect; on the % scale 0 is the no-effect control and ±100 the full control effect; nearly all actives have a fitted effect of over 55% in size
Active calls of the source: *; u = inconclusive; x = no result given; [ ] = remark or other dose. Shown are actives, neighbours in structure and some others; about 16% of the full set was active somewhere. Unless noted, the call rests on the fitted dose curve; in most records, active means well fitted curve in the direction sought with a large enough effect; inconclusive means small, poorly fitted or top-dose-only effect, or another doubt; inactive means no such curve, though single readings can be large; an effect the other way counts as inactive or inconclusive.

entry | smiles | DT40 TDP1 no CPT | TDP1 cell CPT | TDP1 block
1 | CCCCn1c(CN2CCN(C(=O)OCC)CC2)nc2c1c(=O)n(C)c(=O)n2C | 9.2µM* | 12µM* | 0%
2 | Cc1ccccc1Cn1c(CN2CCc3ccccc3C2)nc2c1c(=O)n(C)c(=O)n2C | 21µM* | u | 7%[56.1 µM]
3 | Cn1c(=O)c2c(nc(CN3CCN(Cc4ccccc4)CC3)n2Cc2ccccc2)n(C)c1=O | x | x | 4%
4 | Cn1c(=O)c2c(nc(CN3CCc4ccccc4C3)n2Cc2ccc(F)cc2)n(C)c1=O | 18µM* | 21µM* | x
5 | Cn1c(=O)c2c(nc(CN3CCN(C(c4ccccc4)c4ccccc4)CC3)n2CC(N)=O)n(C)c1=O | -13% | -26% | 5%
6 | Cc1ccccc1Cn1c(CN2CCN(C(=O)c3ccco3)CC2)nc2c1c(=O)n(C)c(=O)n2C | -23% | -11% | 1%
7 | CCOC(=O)Cn1c(CN2CCN(C(c3ccccc3)c3ccccc3)CC2)nc2c1c(=O)n(C)c(=O)n2C | 23µM* | u | 0%
8 | CCOC(=O)N1CCN(C(=O)Nc2ccc(NC(=O)N3CCN(C(=O)OCC)CC3)cc2)CC1 | 12% | 11% | 4%
9 | COC(=O)Cn1c(CN2CCc3ccccc3C2)nc2c1c(=O)n(C)c(=O)n2C | 21µM* | 13µM* | 3%
10 | Cn1c(=O)c2c(nc(N3CCc4ccccc4C3)n2Cc2ccccc2F)n(C)c1=O | 16µM* | 13µM* | 2%

entry | miR-21 reporter | uPA surface inh
1 | 0% | x
2 | -3% | u
3 | -1% | x
4 | x | -16%
5 | -1% | x
6 | -7% | -7%
7 | 0% | -6%
8 | 0% | 9%
9 | 3% | -3%
10 | 1% | 0%

Reprinted from the part before: two entries; new compounds follow.
entry | smiles | DT40 TDP1 no CPT | TDP1 cell CPT | TDP1 block
9 | COC(=O)Cn1c(CN2CCc3ccccc3C2)nc2c1c(=O)n(C)c(=O)n2C | 21µM* | 13µM* | 3%
10 | Cn1c(=O)c2c(nc(N3CCc4ccccc4C3)n2Cc2ccccc2F)n(C)c1=O | 16µM* | 13µM* | 2%
11 | CCc1cccc(C)c1NC(=O)Cn1cc2c(n1)CCCCC2 | u | u | 3%
12 | COc1ccc([C@H]2CC(=O)C=C(c3cc(OC)ccc3OC)C2)cc1 | 15µM* | 13µM* | 2%
13 | COc1ccc(OC)c(C2=CC(=O)C[C@H](c3ccc(F)cc3)C2)c1 | -43% | u | x
14 | COc1ccc(Cl)cc1C1=CC(=O)C[C@H](c2ccc(F)cc2)C1 | u | u | -5%
15 | COc1ccc([C@H]2CC(=O)C=C(c3cc(Cl)ccc3OC)C2)cc1 | u | 13µM* | -2%
16 | COc1ccc([C@H]2CC(=O)C=C(c3cc(C=O)ccc3OC)C2)cc1 | 5.8µM* | 4.6µM* | 3%
17 | COC/C=C/C1=CC(=O)C[C@H](c2ccc3c(c2)OCO3)C1 | 18µM* | u | 3%
18 | Cc1ccc(NC(=O)NCc2ccc3[nH]c(C)cc3c2)cc1 | -5% | 9% | 3%
19 | CC(C)(C)NC(=O)C1CCN(c2ccc(S(=O)(=O)N3CCOCC3)cc2Cl)CC1 | -30% | -11% | 2%
20 | CC(=O)c1c(N)c(C#N)c(C)n1-c1ccc(Br)cc1 | u | -27% | 7%

entry | miR-21 reporter | uPA surface inh
9 | 3% | -3%
10 | 1% | 0%
11 | 0% | x
12 | x | u
13 | x | x
14 | x | -6%
15 | x | u
16 | x | 6.3µM*
17 | x | u
18 | -7% | 3%
19 | 0% | 1%
20 | -10% | 3%

Some values from the results shown.
In TDP1 block, entry 11 has the entry 3%
In TDP1 cell CPT, entry 12 has the entry 13µM*

Quoted from above (three entries):
entry | smiles | DT40 TDP1 no CPT | TDP1 cell CPT | TDP1 block
18 | Cc1ccc(NC(=O)NCc2ccc3[nH]c(C)cc3c2)cc1 | -5% | 9% | 3%
19 | CC(C)(C)NC(=O)C1CCN(c2ccc(S(=O)(=O)N3CCOCC3)cc2Cl)CC1 | -30% | -11% | 2%
20 | CC(=O)c1c(N)c(C#N)c(C)n1-c1ccc(Br)cc1 | u | -27% | 7%

entry | miR-21 reporter | uPA surface inh
18 | -7% | 3%
19 | 0% | 1%
20 | -10% | 3%

The list continues:
entry | smiles | DT40 TDP1 no CPT | TDP1 cell CPT | TDP1 block
21 | CCOc1ccc(Cl)cc1C1=CC(=O)C[C@H](c2ccc(OC)cc2)C1 | 4.1µM* | 2.9µM* | -7%
22 | COc1ccc(F)cc1C1=CC(=O)C[C@H](c2ccc3c(c2)OCO3)C1 | 13µM* | 9.2µM* | 1%
23 | CCOc1ccc(C2=CC(=O)C[C@H](c3ccc(OC)cc3)C2)cc1 | -20% | -25% | 0%
24 | Cc1ccc(-c2sc(C(=O)NN)c(C)c2C#N)cc1 | u | u | 1%
25 | CCOc1ccc(NC(=O)c2nc(S(=O)(=O)Cc3ccccc3C)ncc2Cl)cc1 | 0.71µM* | 1µM* | x
26 | Cc1ccccc1CS(=O)(=O)c1ncc(Cl)c(C(=O)Nc2ccc(F)cc2)n1 | 2.1µM* | 3.3µM* | 3%
27 | Cc1ccc(NC(=O)c2nc(SCc3ccccc3F)ncc2Cl)cc1 | -7% | -14% | x
28 | CCOC(=O)C1CCCN(c2nc3ccccc3nc2C(C#N)C(=O)OCCOC)C1 (configuration not stated) | 21µM* | u | 3%
29 | CCOC(=O)C1CCN(c2nc3ccccc3nc2C(C#N)C(=O)NCCc2ccccc2)CC1 (configuration not stated) | x | x | 6%
30 | CCOC(=O)C1CCCN(c2nc3ccccc3nc2C(C#N)C(=O)OCC)C1 (configuration not stated) | 23µM* | u | 0%

entry | miR-21 reporter | uPA surface inh
21 | x | u
22 | x | u
23 | x | 9%
24 | 27% | -29%
25 | x | x
26 | u | u
27 | x | x
28 | -4% | 1%
29 | -33% | x
30 | 0% | -11%

Carrying on:
entry | smiles | DT40 TDP1 no CPT | TDP1 cell CPT | TDP1 block
31 | CCOC(=O)C1CCCN(c2nc3ccccc3nc2C(C#N)C(=O)OC(C)COC)C1 (configuration not stated) | u | -15% | 0%
32 | O=C(Nc1ccc([N+](=O)[O-])cc1)/C(=C/c1cccc([N+](=O)[O-])c1)NC(=O)C1CCCCC1 | u | u | 2%
33 | CCCn1c(C)nc2c(N3CCC(N(C)C)C3)nc(C)nc21 (configuration not stated) | x | x | 7%
34 | Cc1ccc(Cl)cc1N1CCN(C(=O)c2cc(S(=O)(=O)N3CCCC3)cn2C)CC1 | 23µM* | 16µM* | -5%
35 | Cc1ccc(Cl)cc1N1CCN(C(=O)c2cc(S(=O)(=O)N3CCCCC3)cn2C)CC1 | 21µM* | 13µM* | 4%
36 | COCCn1c(Sc2nc(C)cs2)nc2c1c(=O)[nH]c(=O)n2C | 7% | 8% | 3%
37 | COc1ccc2nc(N=Nc3ccc(N(C)C)cc3)sc2c1 | u | 16µM* | 10%
38 | COc1ccc2nc(/N=C\N(C)C)sc2c1 | -2% | -13% | -3%
39 | COc1ccc(C/C(N)=N/OC(=O)COc2ccccc2C)cc1 | -15% | -20% | -6%
40 | O=C(CN1CCOCC1)Nc1ccccc1Cl | -14% | 3% | 0%

entry | miR-21 reporter | uPA surface inh
31 | 0% | -3%
32 | 0% | -7%
33 | x | x
34 | -6% | x
35 | -1% | x
36 | -4% | 0%
37 | -21% | -12%
38 | -22% | 0%
39 | -8% | 3%
40 | -7% | -4%

Next records.
entry | smiles | DT40 TDP1 no CPT | TDP1 cell CPT | TDP1 block
41 | O=C(c1ccc2nc(-c3ccccc3)c(-c3ccccc3)nc2c1)N1CCCCC1 | 16µM* | u | x
42 | CCC(C)NC(=O)c1ccc2nc(-c3ccc(OC)c(OC)c3)c(-c3ccc(OC)c(OC)c3)nc2c1 (configuration not stated) | u | 15µM* | x
43 | COc1ccc(CNC(=O)c2ccc3nc(-c4ccc(F)cc4)c(-c4ccc(F)cc4)nc3c2)cc1 | -27% | -20% | 5%
44 | COc1ccccc1CNC(=O)c1ccc2c(c1)nnn2C1CCCC1 | 16µM* | 18µM* | 5%
45 | COc1ccccc1CNC(=O)c1ccc2c(c1)nc(C)n2-c1ccccc1OC | u | u | 4%
46 | COc1cccc(CNC(=O)c2ccc3nc(-c4ccc(F)cc4)c(-c4ccc(F)cc4)nc3c2)c1 | 13µM* | 21µM* | 8%
47 | O=C(COC(=O)C1CCN(c2ccc(C(F)(F)F)cn2)CC1)c1ccc(F)cc1 | -12% | -13% | x

entry | miR-21 reporter | uPA surface inh
41 | 14% | 2%
42 | -1% | -3%
43 | -1% | x
44 | -20% | x
45 | -9% | x
46 | 16% | x
47 | x | -1%
